## scFv variants of Ab-14 (light chain) against a SARS-CoV-2 spike peptide

Target peptide (SARS-CoV-2 spike, HR2 region): PDVDLGDISGINAS

Parent: Ab-14, a human scFv built as VH, a (GGGGS)3 linker, VL. Only the CDRs of the light chain vary.
VH: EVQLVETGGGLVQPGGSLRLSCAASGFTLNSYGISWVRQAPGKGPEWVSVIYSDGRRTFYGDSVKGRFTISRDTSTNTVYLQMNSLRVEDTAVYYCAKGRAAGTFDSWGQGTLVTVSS
VL: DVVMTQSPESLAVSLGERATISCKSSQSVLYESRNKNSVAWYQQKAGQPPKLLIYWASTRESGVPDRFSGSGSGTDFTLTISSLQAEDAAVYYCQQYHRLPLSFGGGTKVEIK

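The variants were designed computationally from a first round of random CDR variants and then made and measured. Group labels follow the data file (Ctrl: baseline library sampled from a position-specific scoring matrix, with some repeated check sequences; En: ensemble of fine-tuned language models; GP: Gaussian process model; HC: hill climbing; Gen: genetic algorithm; Gibbs: Gibbs sampling; a sequence that several methods proposed may carry one label only). The scFvs were displayed on barcoded MATa yeast, the peptide on MATalpha yeast. The frequency of each diploid, read from paired DNA barcodes, reflects how well the two displayed proteins bind. Read counts were normalised to the haploid input and turned into Kd by a linear fit to BCL2-family pairs of known affinity, for each replicate. Each pool was mated in six replicate cultures.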

The parent's light chain CDRs are KSSQSVLYESRNKNSVA, WASTRES, QQYHRLPLS; each variant's own CDRs replace them letter for letter.
The read-out is the apparent dissociation constant on a log10 scale (nM): the lower, the stronger.
Replicates are averaged; those with no signal do not enter the mean.
"not detected" marks a missing value. The strain was present, yet no cells mated with the target were sequenced in any replicate, which points to weak or no binding.
The authors' rule: three or more of the six replicates give a measured affinity, fewer mean a poor binder.
Of ten entries with the parent sequence, four were seen in most replicates (averages 0.34 to 2.37), three in one and three in none, so single entries are noisy.
Background: pairings of all light chain designs with three empty control strains gave a value in 4% of cases (median 2.64, 5th percentile 1.59). Values in that range, when seen in few replicates, are hard to tell from nonspecific mating.
The range of this assay differs from that of the first round, and the authors advise against merging the two.

{"CDR-L1": "KIRVNHLMFSQNESNIA", "CDR-L2": "GSSVRSR", "CDR-L3": "QQYYHLPLT", "group": "En_Gibbs", "mean, log10 nM": "1.32", "replicates with signal": "6 of 6"}
{"CDR-L1": "MITEGQLGENKNSSNIA", "CDR-L2": "SQNIKTD", "CDR-L3": "QQYQRLPLV", "group": "En_Gibbs", "mean, log10 nM": "1.18", "replicates with signal": "6 of 6"}
{"CDR-L1": "KLSQSVLYEERNGNSVA", "CDR-L2": "NASTRES", "CDR-L3": "QQYHRLPLS", "group": "GP_Gen", "mean, log10 nM": "-0.24", "replicates with signal": "6 of 6"}
{"CDR-L1": "KLWMIFFEGQQELSAVA", "CDR-L2": "NAGVLVQ", "CDR-L3": "QQYNVLPLS", "group": "En_Gibbs", "mean, log10 nM": "not detected", "replicates with signal": "0 of 6"}
{"CDR-L1": "NLDKADYESRQMINNIA", "CDR-L2": "DMSTLVA", "CDR-L3": "QQYASLPLD", "group": "En_Gibbs", "mean, log10 nM": "1.64", "replicates with signal": "6 of 6"}
{"CDR-L1": "KFSQSMLYESRNKNSVA", "CDR-L2": "DASQRES", "CDR-L3": "QQYHRLPLS", "group": "GP_Gen", "mean, log10 nM": "-0.41", "replicates with signal": "6 of 6"}
{"CDR-L1": "HISYSMEHLSRNKNSVA", "CDR-L2": "NQQTRES", "CDR-L3": "QQYHRLPLS", "group": "En_HC", "mean, log10 nM": "0.40", "replicates with signal": "6 of 6"}
{"CDR-L1": "KVSQSFLYESRNKNSVA", "CDR-L2": "DASQRES", "CDR-L3": "QQYHRLPLS", "group": "GP_Gen", "mean, log10 nM": "-0.31", "replicates with signal": "6 of 6"}
{"CDR-L1": "KSSESRLYESRNFNSVA", "CDR-L2": "WAHTRES", "CDR-L3": "QQYHRLPLE", "group": "Ctrl", "mean, log10 nM": "2.28", "replicates with signal": "3 of 6"}
{"CDR-L1": "KISMMYRYESTASNSIA", "CDR-L2": "EMTTRAE", "CDR-L3": "QSYHRLPLS", "group": "En_HC", "mean, log10 nM": "0.64", "replicates with signal": "6 of 6"}
{"CDR-L1": "IISQSVLGGYHNKNSVA", "CDR-L2": "QTSERGN", "CDR-L3": "QQYDRLPLS", "group": "En_HC", "mean, log10 nM": "0.79", "replicates with signal": "6 of 6"}
{"CDR-L1": "KSSQSMMYESRNKNSVA", "CDR-L2": "HASTRES", "CDR-L3": "QQYYRLPLS", "group": "Ctrl", "mean, log10 nM": "-0.09", "replicates with signal": "6 of 6"}
{"CDR-L1": "KSSQSVLYEKHNKNSVA", "CDR-L2": "EASTRES", "CDR-L3": "QQYHRLPLS", "group": "Ctrl", "mean, log10 nM": "1.16", "replicates with signal": "6 of 6"}
{"CDR-L1": "KSSQSVLYESRNKNSVA", "CDR-L2": "NGSTREM", "CDR-L3": "QQYDGLPLS", "group": "Ctrl", "mean, log10 nM": "1.62", "replicates with signal": "6 of 6"}
{"CDR-L1": "KSSQSVEYESRWKNSVA", "CDR-L2": "HASTREY", "CDR-L3": "QQYHRFPLD", "group": "Ctrl", "mean, log10 nM": "2.20", "replicates with signal": "6 of 6"}
{"CDR-L1": "KLSQSVLYESRNFNSVA", "CDR-L2": "NASTRLS", "CDR-L3": "QQYHRLPLS", "group": "GP_Gen", "mean, log10 nM": "-0.14", "replicates with signal": "6 of 6"}
{"CDR-L1": "KMSTSILYESRNKNSVA", "CDR-L2": "WASQRES", "CDR-L3": "QQYFRLPLS", "group": "Ctrl", "mean, log10 nM": "not detected", "replicates with signal": "0 of 6"}
{"CDR-L1": "KMSQEVPLESRNVNSVA", "CDR-L2": "MASTRLM", "CDR-L3": "QQYHRLPLS", "group": "GP_Gibbs", "mean, log10 nM": "0.46", "replicates with signal": "6 of 6"}
{"CDR-L1": "MLSDVARGLTRKEDSVA", "CDR-L2": "DNSTRED", "CDR-L3": "QQYDRLPLS", "group": "En_Gen", "mean, log10 nM": "3.13", "replicates with signal": "2 of 6"}
{"CDR-L1": "TLGNLMGGQNEMDNSIA", "CDR-L2": "NHETRVQ", "CDR-L3": "QQYWHLPLV", "group": "En_Gibbs", "mean, log10 nM": "0.61", "replicates with signal": "6 of 6"}
{"CDR-L1": "HMSMVTLSGMRHTNSVA", "CDR-L2": "QMTTRVN", "CDR-L3": "QQYDRLPLM", "group": "En_Gen", "mean, log10 nM": "0.91", "replicates with signal": "6 of 6"}

The opening 2 entries, copied out:

{"CDR-L1": "KIRVNHLMFSQNESNIA", "CDR-L2": "GSSVRSR", "CDR-L3": "QQYYHLPLT", "group": "En_Gibbs", "mean, log10 nM": "1.32", "replicates with signal": "6 of 6"}
{"CDR-L1": "MITEGQLGENKNSSNIA", "CDR-L2": "SQNIKTD", "CDR-L3": "QQYQRLPLV", "group": "En_Gibbs", "mean, log10 nM": "1.18", "replicates with signal": "6 of 6"}

Reference: Li et al. 2023, doi:10.1038/s41467-023-39022-2. File: FLAb, binding data.